This is an account of results in ChEMBL document CHEMBL2311497, “An optimized RAD51 inhibitor that disrupts homologous recombination without requiring Michael acceptor reactivity” (J Med Chem, 2013).

Structures are written as SMILES. Active and inactive are the calls of the source. The rule behind the calls is not given here.

For this test, the target named is T1, DNA repair protein RAD51 homolog 1 (Homo sapiens) (UniProt Q06609).
T1 sequence (whole entry): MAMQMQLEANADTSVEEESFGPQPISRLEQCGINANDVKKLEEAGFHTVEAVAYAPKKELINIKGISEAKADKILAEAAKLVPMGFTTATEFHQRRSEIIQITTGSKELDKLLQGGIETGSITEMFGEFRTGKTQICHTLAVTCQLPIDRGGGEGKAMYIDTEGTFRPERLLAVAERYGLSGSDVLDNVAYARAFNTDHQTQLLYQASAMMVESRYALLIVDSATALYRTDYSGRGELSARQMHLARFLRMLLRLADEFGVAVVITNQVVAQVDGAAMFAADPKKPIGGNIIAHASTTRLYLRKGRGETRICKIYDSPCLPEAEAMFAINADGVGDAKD
Nature of the test: Inhibition of RAD51 in HEK293 cells assessed as stimulation of single strand annealing at 20 uM after 24 hrs by reporter gene assay based FACS analysis. It is filed as cell-based.

`O=C1C(Cl)=C(N2CCOCC2)C(=O)N1c1ccc(Cl)c(Cl)c1`: the outcome was Active.
